# Source: article PMC11099041, “Tissue distribution and retention drives efficacy of rapidly clearing VHL-based PROTACs” (Communications Medicine, 2024)
# The chains behind the UniProt entries cited, without tags or fusion partners.
# UniProt P51531, whole entry: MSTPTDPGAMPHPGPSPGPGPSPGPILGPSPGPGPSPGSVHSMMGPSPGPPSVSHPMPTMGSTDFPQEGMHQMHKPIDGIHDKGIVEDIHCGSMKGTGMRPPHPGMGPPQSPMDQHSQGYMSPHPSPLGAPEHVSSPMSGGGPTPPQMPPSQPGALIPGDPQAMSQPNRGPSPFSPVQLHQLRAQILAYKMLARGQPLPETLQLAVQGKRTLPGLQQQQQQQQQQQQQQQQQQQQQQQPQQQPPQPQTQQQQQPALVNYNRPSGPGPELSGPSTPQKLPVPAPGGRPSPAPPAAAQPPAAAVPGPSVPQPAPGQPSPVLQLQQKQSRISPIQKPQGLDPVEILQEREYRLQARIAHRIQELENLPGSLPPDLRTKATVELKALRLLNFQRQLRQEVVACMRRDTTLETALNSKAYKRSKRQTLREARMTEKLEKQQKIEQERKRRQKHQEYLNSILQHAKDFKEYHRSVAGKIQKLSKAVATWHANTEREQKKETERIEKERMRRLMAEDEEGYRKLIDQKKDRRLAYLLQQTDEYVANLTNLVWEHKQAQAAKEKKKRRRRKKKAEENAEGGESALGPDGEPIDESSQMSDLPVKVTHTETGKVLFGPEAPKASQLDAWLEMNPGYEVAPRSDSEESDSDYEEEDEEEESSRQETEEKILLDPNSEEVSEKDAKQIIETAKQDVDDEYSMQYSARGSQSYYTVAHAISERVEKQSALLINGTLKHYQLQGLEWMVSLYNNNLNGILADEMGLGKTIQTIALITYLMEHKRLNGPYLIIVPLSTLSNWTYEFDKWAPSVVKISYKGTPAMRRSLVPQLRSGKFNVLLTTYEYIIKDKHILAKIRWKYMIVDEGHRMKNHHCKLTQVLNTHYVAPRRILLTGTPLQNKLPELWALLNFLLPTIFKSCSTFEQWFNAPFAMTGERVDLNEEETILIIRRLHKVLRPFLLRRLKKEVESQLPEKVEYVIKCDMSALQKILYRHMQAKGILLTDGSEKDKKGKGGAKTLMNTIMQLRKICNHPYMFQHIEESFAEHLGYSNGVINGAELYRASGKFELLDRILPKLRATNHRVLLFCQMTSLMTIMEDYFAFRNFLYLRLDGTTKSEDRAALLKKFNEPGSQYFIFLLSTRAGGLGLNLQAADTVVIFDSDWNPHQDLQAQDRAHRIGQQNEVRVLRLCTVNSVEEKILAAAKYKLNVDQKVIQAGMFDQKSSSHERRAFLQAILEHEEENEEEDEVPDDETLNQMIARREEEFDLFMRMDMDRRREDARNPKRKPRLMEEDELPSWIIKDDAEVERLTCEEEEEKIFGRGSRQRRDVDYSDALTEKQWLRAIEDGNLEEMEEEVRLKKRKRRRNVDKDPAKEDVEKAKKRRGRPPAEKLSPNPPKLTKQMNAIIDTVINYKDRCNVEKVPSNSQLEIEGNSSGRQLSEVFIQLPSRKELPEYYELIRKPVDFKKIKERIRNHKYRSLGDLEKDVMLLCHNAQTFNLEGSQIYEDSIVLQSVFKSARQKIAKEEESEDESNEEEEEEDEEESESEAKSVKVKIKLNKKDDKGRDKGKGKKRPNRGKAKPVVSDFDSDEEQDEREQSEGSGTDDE
# UniProt P05177, whole entry: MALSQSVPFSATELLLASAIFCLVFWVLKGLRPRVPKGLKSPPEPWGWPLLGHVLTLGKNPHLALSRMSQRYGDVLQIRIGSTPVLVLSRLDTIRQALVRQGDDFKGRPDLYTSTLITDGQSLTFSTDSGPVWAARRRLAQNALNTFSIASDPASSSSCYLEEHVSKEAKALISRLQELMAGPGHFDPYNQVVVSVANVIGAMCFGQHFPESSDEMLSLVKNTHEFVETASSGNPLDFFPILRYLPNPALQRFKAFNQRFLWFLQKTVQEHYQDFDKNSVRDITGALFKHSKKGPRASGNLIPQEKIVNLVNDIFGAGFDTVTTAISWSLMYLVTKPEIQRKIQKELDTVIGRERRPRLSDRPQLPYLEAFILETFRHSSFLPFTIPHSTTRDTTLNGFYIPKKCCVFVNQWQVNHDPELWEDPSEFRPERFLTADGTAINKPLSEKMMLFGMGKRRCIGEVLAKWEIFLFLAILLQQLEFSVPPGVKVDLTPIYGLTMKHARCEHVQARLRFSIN
# Columns and labels:
# SMARCA2 = biological target: T1, SMARCA2 (Homo sapiens, UniProt P51531); experiment: SMARCA2 re-synthesis after drug washout in NCI-H1944 cells; assay type: cell-based
# T1 construct: from tissue; host or cells: xenograft tumour (HCC2302) in mice
# [1] = In vitro metabolism in human liver microsomes; assay type: in vitro ADME; settings: 5 µM, 1 hr
# Method: The supernatant (5 µL) was analyzed by LC-MS as described above. Buffer control incubations were also included.
# CYP1A2 = biological target: T2, CYP1A2 (Homo sapiens, UniProt P05177); experiment: Time-dependent P450 inhibition (TDI) in HLM; assay type: biochemical; settings: 30 min pre-incubation ± NADPH, substrate Phenacetin
# T2 construct: phosphate buffer (100 mM, pH 7.4) containing human liver microsomes (HLM); from tissue; host or cells: human liver microsomes
# Method: (§1) The time-dependent inhibition (TDI) experiment was performed in triplicate as described in literature. […] Incubation samples were processed and subsequently analyzed by LC-MS/MS as described in the reversible P450 inhibition assay. For each P450 enzyme, two sigmoidal dose-response curves were obtained to calculate %AUC shifts.
# CYP3A4/5 = experiment: Time-dependent P450 inhibition (TDI) in HLM; assay type: biochemical, human; settings: 30 min pre-incubation ± NADPH
# Method: as §1
# [2] = In vitro metabolism in rat hepatocytes; settings: 5 µM A947, 3 hr
# [3] = In vitro metabolism in human hepatocytes; settings: 5 µM A947, 3 hr
# [4] = rat, in vivo
# From the text: Male Sprague Dawley rats, intact or bile-cannulated, were from Envigo RMS, Inc. The animals were acclimated to study conditions for five days prior to dose administration. During acclimation, animals were individually housed in suspended, stainless steel, wire-mesh cages. During the test period, animals were placed in Nalgene cages designed for the collection of urine, feces, and bile. Certified Rodent Diet #2016C or 2016CM (Envigo RMS, Inc.) were provided ad libitum. Water was provided fresh daily. Environmental controls for the animal room were set to maintain a temperature of 20-26 °C, a relative humidity of 50 ± 20%, and a 12-hour light/12-hour dark cycle. […] Three BDC rats were used for collection of bile, urine, and feces, five intact rats for collection of plasma, blood, urine, feces, and tissues, and eight intact rats for collection of blood and carcasses for QWBA. […] The actual amount administered was determined by weighing the dose syringe before and after dose administration. […] Prior to section collection, standards fortified with ^14C radioactivity were placed into the frozen block containing the carcass and were used for monitoring the uniformity of section thickness. […] Specified tissues, organs, and fluids were analyzed. […] The mean time concentration profile was generated for each group, and an overall AUC was then calculated with these sparse samples of rats and mice. […]
smiles,measurement,setting,value
Cc1ncsc1-c1ccc(C(C)NC(=O)C2CC(O)CN2C(=O)C(c2cc(N3CCC(CN4CCC(OC5CC(Oc6cc(N7C8CCC7CN(c7cc(-c9ccccc9O)nnc7N)C8)ccn6)C5)CC4)CC3)no2)C(C)C)cc1 (stereo not shown) [A947],SMARCA2 protein re-synthesis after washout,"SMARCA2; NCI-H1944, 48 h and 168 h after 8-hour treatment and washout",minimal SMARCA2 protein re-synthesized
same,SMARCA2 protein degradation,"SMARCA2; NCI-H1944 cells, 10 nM, 8 h",~ 85%
same,Estimated relative distribution percent of mass spectral abundance,"[1]; human liver microsomes (+NADPH, +UDPGA)",96.9%
same,Estimated relative distribution percent of mass spectral abundance,"[1]; human liver microsomes (-NADPH, -UDPGA)",99.1%
same,%AUC Shift,CYP1A2,-6.7%
same,%AUC Shift,CYP3A4/5; substrate Midazolam,33%
same,%AUC Shift,CYP3A4/5; substrate Testosterone,38%
same,Estimated relative distribution percent of mass spectral abundance,[2],94.4%
same,Estimated relative distribution percent of mass spectral abundance,[3],93.8%
Cc1ncsc1-c1ccc(C(C)NC(=O)C2CC(O)CN2C(=O)C(c2cc(N3CCC(CN4CCC(OC5CC(Oc6cc(N7C8CCC7CN(c7cc(-[14c]9[14cH][14cH][14cH][14cH][14c]9O)nnc7N)C8)ccn6)C5)CC4)CC3)no2)C(C)C)cc1 (stereo not shown) [14C-A947],Half-lives in selected tissues,[4],~ 80 hours
